Experimental melting point values from OPERA 2.9

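The OPERA project collected these measurements from public sources as training and test data for property models. A listed value is a point estimate from one report or more. Conditions of the individual experiments are not part of the data. The measured form (salt, isomer or mixture) is not always the one drawn. Some entries may be limits or estimates that an upstream database listed as plain numbers.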

The melting point is given in degrees Celsius.
Cells with "n/a" have no entry in this list.

SMILES | name | melting point (°C)
C[C@@]12CCC(=O)C=C1CC[C@H]1[C@H]2CC[C@]2(C)[C@@H]1CC[C@]21CCC(=O)O1 | 6,7-Dihydrocanrenone | 158
CCOc1ccc(NS(=O)(=O)c2ccc(N)cc2)cc1 | 4-amino-N-(4-ethoxyphenyl)benzenesulfonamide | 146
O=C(O)c1cccnc1Sc1ccc(Br)cc1 | 2-[(4-Bromophenyl)sulfanyl]pyridine-3-carboxylic acid | 224
CCCCCCCCCC[N+](C)(C)[O-] | N,N-Dimethyldecylamine oxide | 130
CCN1CCc2nc(N)sc2C1 | 5-Ethyl-4,5,6,7-tetrahydro-thiazolo[5,4-c]pyridin-2-ylamine | 75.5
O=C(O)c1cc2c(cc1[N+](=O)[O-])OCCO2 | 7-nitro-2,3-dihydro-1,4-benzodioxine-6-carboxylic acid | 222
Cc1cc(Br)cc(C)c1C(=O)O | 4-bromo-2,6-dimethylbenzoic acid | 185
C=CC(=O)OCCOC(=O)NCCCC | 2-Propenoic acid, 2-[[(butylamino)carbonyl]oxy]ethyl ester | -8.75
O=C(O)C1CCN(S(=O)(=O)c2ccccc2)CC1 | 1-(Benzenesulfonyl)piperidine-4-carboxylic acid | 157
Cc1cccc(OC(C)C(=O)O)c1 (stereo not given) | 2-(3-Methylphenoxy)propanoic acid | 86
CC(=O)c1c(C)nc2ccccc2c1N | 1-(4-amino-2-methylquinolin-3-yl)ethanone | 153
NNC(=O)CSc1nnc(-c2ccccc2)n1-c1ccccc1 | n/a | 243
O=C(O)c1cnc2ccccn2c1=O | 4-Oxo-4H-pyrido[1,2-a]pyrimidine-3-carboxylic acid | 252
COc1ccc(OC)c2[nH]c(C(=O)O)cc12 | 4,7-Dimethoxy-1H-indole-2-carboxylic acid | 202
COC(=O)c1n[nH]c(=O)c2ccccc12 | Methyl 4-oxo-3,4-dihydrophthalazine-1-carboxylate | 128
O=C(O)CCCSc1ccc(Cl)cc1 | 4-[(4-Chlorophenyl)sulfanyl]butanoic acid | 107
N#CCCN(CCC#N)c1ccc(N=Nc2c(Cl)cc([N+](=O)[O-])cc2Cl)cc1 | n/a | 181.1
NC(=S)Cc1cccc(Cl)c1 | (3-Chlorophenyl)ethanethioamide | 106
O=C(O)CCCn1cncn1 | 4-(1H-1,2,4-triazol-1-yl)butanoic acid | 141
N=C(N)NS(=O)(=O)c1ccccc1 | N-Carbamimidoylbenzenesulfonamide | 212
Cc1cc(-c2csc(N)n2)c(C)s1 | 4-(2,5-dimethylthien-3-yl)-1,3-thiazol-2-amine | 73
Cc1nc(-c2ccc(F)cc2)cs1 | 4-(4-Fluorophenyl)-2-methylthiazole | 75
Cn1ccnc1CC(=O)c1ccccc1 | 2-(1-Methyl-1H-imidazol-2-yl)-1-phenylethan-1-one | 97
Nc1ccc(N2CCC(O)CC2)cc1 | 1-(4-Aminophenyl)piperidin-4-ol | 172
CSc1ccccc1C(=O)N(NC(=O)c1ccccc1)C(C)(C)C | n/a | 196
O=[N+]([O-])c1cc(Cl)ccc1I | 4-chloro-1-iodo-2-nitrobenzene | 64
Clc1cc(Oc2c(Cl)c(Cl)c(Cl)c(Cl)c2Cl)c(Cl)c(Cl)c1Cl | n/a | 158
Cc1sc(-n2cccc2)c(C(=O)O)c1C | 4,5-Dimethyl-2-(1H-pyrrol-1-yl)thiophene-3-carboxylic acid | 157
COC(=O)CS(=O)(=O)c1ccccc1 | Methyl phenylsulfonyl acetate | 32.5
Cc1cc(N)n(-c2ccccn2)n1 | 3-Methyl-1-(pyridin-2-yl)-1H-pyrazol-5-amine | 103
O=c1c2ccccc2nnn1CCl | 3-(Chloromethyl)-1,2,3-benzotriazin-4(3H)-one | 131
C=CC(=O)NCCO | (2-Hydroxyethyl)acrylamide | -27

The 2 highest values of melting point among the entries above:

SMILES	name	melting point (°C)
O=C(O)c1cnc2ccccn2c1=O	4-Oxo-4H-pyrido[1,2-a]pyrimidine-3-carboxylic acid	252
NNC(=O)CSc1nnc(-c2ccccc2)n1-c1ccccc1	n/a	243

Data: OPERA 2.9 data sets, kmansouri/OPERA on GitHub.